The numbers were not newly measured in patent US8383817B2, “Benztropine compounds and uses thereof” (The United States of America, as represented by the …, priority 2005, dated 2013), which cites them from elsewhere.

The target in this data set is T1, NET (Rattus norvegicus, UniProt Q9WTR4).
T1 construct: rows headed: NET Ki; NET Ki
To be noted: read-out: NET Ki; data from Katz et al. 2001, included for reference; cited from earlier work.

Structures are written as SMILES.

For orientation: Ki means the equilibrium dissociation constant of an inhibitor or competing ligand from its target. For `CN1[C@@H]2CC[C@H]1C[C@@H](OC(c1ccc(Cl)cc1)c1ccc(Cl)cc1)C2` [4,4-diCl BZT, 3α-(bis-Cl-phenylmethoxy)tropane, reference compound], the Ki was 2.98 µM.
